The numbers were not newly measured in patent US11512353B2, “Method to predict response to neuropsychiatric drugs using variation in the serotonin 7 receptor (HTR7) gene” (The Regents of the University of California, priority 2018, dated 2022), which cites them from elsewhere.

Amino acid sequences for entries named in this document (tags omitted).
UniProt P23975, whole entry, species assumed: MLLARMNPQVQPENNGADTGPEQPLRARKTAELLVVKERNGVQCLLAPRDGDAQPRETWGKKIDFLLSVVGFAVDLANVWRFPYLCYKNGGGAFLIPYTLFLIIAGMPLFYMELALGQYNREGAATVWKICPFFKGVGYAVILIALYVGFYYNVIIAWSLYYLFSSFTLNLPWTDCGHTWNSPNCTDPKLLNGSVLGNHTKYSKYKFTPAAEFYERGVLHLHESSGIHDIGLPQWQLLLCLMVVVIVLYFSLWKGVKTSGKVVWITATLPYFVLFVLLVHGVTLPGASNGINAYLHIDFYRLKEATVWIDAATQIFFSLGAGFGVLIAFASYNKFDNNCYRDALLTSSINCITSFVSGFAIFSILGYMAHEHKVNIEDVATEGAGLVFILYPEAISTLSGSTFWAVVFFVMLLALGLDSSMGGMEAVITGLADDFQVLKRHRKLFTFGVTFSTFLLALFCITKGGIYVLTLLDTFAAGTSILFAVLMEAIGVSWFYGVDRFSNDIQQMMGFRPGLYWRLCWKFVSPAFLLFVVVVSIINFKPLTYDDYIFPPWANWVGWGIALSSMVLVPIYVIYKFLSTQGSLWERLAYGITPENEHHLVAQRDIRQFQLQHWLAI

In this data set the target is norepinephrine transporter (Homo sapiens, UniProt P23975). The following applies: cited from earlier work.

The structures appear in SMILES notation.

On to `CNCCC=C1c2ccccc2CCc2ccccc21` [Nortriptyline, Nortyptiline], for which the “affinity to norepinephrine transporter relative to serotonin transporter” value is “a hundred times higher affinity”.
